Drawing on ChEMBL document CHEMBL3091319, “Chemical synthesis and biological validation of immobilized protein kinase inhibitory Leucettines” (Eur J Med Chem, 2013), this text covers IC50 for one molecule.

Protein sequences, listed by entry. Tags and fused reporters are not part of them. Lines headed by an entry give the natural chain unless they say otherwise; changes in a name come on top.
UniProt O35493: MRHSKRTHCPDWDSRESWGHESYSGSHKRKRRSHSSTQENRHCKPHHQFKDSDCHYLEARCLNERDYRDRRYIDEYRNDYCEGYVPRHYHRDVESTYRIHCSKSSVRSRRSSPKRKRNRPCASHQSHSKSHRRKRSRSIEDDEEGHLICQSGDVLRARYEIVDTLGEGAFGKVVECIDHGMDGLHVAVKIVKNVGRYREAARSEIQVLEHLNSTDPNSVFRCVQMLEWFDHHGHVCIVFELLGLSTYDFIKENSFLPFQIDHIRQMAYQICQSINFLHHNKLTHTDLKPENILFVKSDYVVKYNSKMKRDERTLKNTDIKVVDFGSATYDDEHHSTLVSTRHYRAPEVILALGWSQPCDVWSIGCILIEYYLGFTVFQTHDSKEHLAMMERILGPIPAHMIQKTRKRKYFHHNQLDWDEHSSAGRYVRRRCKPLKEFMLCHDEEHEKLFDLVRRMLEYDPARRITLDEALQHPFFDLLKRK

For assay [1], the target named is Dual specificity protein kinase CLK4 (Mus musculus, UniProt O35493). Kind of assay: Inhibition of mouse recombinant CLK4 expressed in Escherichia coli using GRSRSRSRSRSR as substrate. The procedure, abridged: (§1)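 Human DYRKs and mouse CLKs were expressed in E. coli as GST fusions and purified on glutathione-agarose. Each was assayed with RS peptide substrate and [γ-33P]ATP in buffer D at 30 °C for 30 min. Phosphorylation was read on P81 filters by scintillation. Activity is given as % of maximal after blank subtraction, and IC50 was derived from dose-response curves.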

Assay [2] concerns the target T1, Dual specificity tyrosine-phosphorylation-regulated kinase 3 (Homo sapiens, UniProt O43781).
T1 sequence (O43781 whole entry): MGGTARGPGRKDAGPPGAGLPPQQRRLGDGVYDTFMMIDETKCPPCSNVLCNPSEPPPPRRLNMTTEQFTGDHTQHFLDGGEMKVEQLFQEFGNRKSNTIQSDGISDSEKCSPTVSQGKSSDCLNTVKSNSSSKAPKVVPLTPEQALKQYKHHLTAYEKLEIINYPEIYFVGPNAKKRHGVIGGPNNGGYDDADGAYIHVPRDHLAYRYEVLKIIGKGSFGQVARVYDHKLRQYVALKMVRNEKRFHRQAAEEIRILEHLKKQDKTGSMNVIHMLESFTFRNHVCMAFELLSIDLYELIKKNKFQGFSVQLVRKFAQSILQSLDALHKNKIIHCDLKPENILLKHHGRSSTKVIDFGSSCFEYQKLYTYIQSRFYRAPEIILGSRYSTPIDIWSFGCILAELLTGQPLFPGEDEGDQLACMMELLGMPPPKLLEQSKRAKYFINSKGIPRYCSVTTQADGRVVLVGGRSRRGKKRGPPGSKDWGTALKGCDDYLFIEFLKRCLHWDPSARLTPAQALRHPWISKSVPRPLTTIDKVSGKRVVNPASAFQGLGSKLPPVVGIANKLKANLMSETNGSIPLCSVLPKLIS
Kind of assay: Inhibition of human recombinant DYRK3 expressed in Escherichia coli using GRSRSRSRSRSR as substrate. The procedure, abridged:
as §1

For orientation: IC50 means the point on the concentration scale where inhibition reaches its midpoint. On to `O=C1NC(Nc2ccccc2)=N/C1=C\c1ccc2c(c1)OCO2`, for which the IC50 in assay [1] was found to be 31 nM; in assay [2], 700 nM.
